Results taken from ChEMBL document CHEMBL1136114, “Advances Toward new antidepressants beyond SSRIs: 1-aryloxy-3-piperidinylpropan-2-ols with dual 5-HT(1A) receptor antagonism/SSRI activities. Part 2” (Bioorg Med Chem Lett, 2003).

By UniProt entry, the sequences of proteins in these tests, tags left out.
UniProt P08908, whole entry: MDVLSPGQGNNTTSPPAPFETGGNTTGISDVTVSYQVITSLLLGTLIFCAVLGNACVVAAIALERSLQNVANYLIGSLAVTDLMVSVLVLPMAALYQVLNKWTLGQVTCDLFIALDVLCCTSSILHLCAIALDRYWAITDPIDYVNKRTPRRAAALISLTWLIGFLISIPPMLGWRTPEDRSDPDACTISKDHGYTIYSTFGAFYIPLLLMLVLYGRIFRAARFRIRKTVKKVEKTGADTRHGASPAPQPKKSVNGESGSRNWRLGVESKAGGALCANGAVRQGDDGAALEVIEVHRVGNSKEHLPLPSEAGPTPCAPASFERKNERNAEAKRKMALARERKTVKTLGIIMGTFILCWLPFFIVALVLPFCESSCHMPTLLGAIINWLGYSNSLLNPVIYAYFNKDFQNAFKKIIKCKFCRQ
UniProt P31652, whole entry: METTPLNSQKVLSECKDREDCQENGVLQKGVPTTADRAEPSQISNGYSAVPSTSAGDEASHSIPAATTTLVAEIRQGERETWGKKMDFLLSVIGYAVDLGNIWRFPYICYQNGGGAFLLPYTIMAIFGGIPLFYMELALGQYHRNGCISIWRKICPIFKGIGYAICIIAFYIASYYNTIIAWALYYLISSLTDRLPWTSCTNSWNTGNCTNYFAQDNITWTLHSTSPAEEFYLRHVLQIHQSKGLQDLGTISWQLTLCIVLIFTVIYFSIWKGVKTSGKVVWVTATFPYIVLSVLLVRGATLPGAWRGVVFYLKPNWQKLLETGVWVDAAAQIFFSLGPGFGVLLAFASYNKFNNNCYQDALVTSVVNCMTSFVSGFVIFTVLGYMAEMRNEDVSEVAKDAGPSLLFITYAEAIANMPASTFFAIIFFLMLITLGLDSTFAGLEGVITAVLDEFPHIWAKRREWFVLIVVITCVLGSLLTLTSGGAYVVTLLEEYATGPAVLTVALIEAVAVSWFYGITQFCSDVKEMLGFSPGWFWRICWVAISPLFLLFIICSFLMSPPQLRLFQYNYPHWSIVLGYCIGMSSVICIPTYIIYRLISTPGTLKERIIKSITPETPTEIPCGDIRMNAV

Assays:
[1] = target: T1, 5-hydroxytryptamine receptor 1A (Homo sapiens, UniProt P08908); experiment: In vitro binding affinity at 5-hydroxytryptamine 1A receptor by [3H]8-OH-DPAT displacement.
[2] = target: T1, 5-hydroxytryptamine receptor 1A; experiment: (§1) Inhibition of 5-HT induced [35S]GTP-gamma-S, binding at human cloned 5-HT 1A receptors.; format: functional
[3] = target: T1, 5-hydroxytryptamine receptor 1A; experiment: as §1; format: functional; remark: listed apart in the source
[4] = target: Sodium-dependent serotonin transporter (Rattus norvegicus, UniProt P31652); experiment: In vitro affinity at the 5-HT reuptake site using [3H]paroxetine as radioligand in rat frontal cortex membranes; format: cell membranes, Membrane

How did the Ki [1] turn out when `C[C@H]1C[C@H](c2cc3c(F)cccc3s2)CCN1C[C@H](O)COc1cccc2[nH]ccc12` was run?
The Ki was 13.9 nM.

Which results are given for `COc1cccc2sc([C@@H]3CCN(C[C@H](O)COc4cccc5[nH]ccc45)[C@H](C)C3)cc12`?
Ki [1]: 2.76 nM; Ki [2]: 1.8 nM

`COc1cccc2sc([C@@H]3CCN(C[C@H](O)COc4cccc5[nH]ccc45)[C@@H](C)C3)cc12` was tested. Which Emin [3] did it give?
The Emin was 7.83%.

And the Ki [1]?
Its Ki is 3.64 nM.

And the Ki [4]?
Its Ki is 0.27 nM.

And the Ki [2]?
The Ki was 2.33 nM.

How did the Ki [1] turn out when `COc1cccc2sc([C@H]3CCN(C[C@H](O)COc4cccc5[nH]ccc45)[C@H](C)C3)cc12` was run?
The Ki was 8.47 nM.

What about the Ki [4] of the same compound?
Its Ki is 1.15 nM.

What about the Ki [2] of the same compound?
The Ki was 8.37 nM.

How did the Ki [1] turn out when `COc1cccc2sc([C@H]3CCN(C[C@H](O)COc4cccc5[nH]ccc45)[C@@H](C)C3)cc12` was run?
Its Ki is 14.4 nM.

What about the Ki [4] of the same compound?
Its Ki is 13.6 nM.

And the Ki [2]?
The Ki was 16.4 nM.
